For test [1], the system named is A-375. The test can be described thus: Cytotoxicity against human A375 cells after 24 hrs by MTT assay. (Tetrazolium assays rely on reduction of a dye to a coloured formazan, in cell work by metabolically active cells.)
The test system of test [2] is NCI-H460. Description: Cytotoxicity against human H460 cells after 24 hrs by MTT assay.

In the case of `O=C(O)CCCc1ccc(N(CCCl)CCCl)cc1`, the CC50 (usually the concentration at which the toxic effect on the cells reaches its halfway point) in test [1] stood at 127 µM; in test [2] it was 104 µM.
